{"sequences": {"note": "The chains behind the UniProt entries cited, without tags or fusion partners. Residues count along the entry.", "UniProt Q07820, whole entry": "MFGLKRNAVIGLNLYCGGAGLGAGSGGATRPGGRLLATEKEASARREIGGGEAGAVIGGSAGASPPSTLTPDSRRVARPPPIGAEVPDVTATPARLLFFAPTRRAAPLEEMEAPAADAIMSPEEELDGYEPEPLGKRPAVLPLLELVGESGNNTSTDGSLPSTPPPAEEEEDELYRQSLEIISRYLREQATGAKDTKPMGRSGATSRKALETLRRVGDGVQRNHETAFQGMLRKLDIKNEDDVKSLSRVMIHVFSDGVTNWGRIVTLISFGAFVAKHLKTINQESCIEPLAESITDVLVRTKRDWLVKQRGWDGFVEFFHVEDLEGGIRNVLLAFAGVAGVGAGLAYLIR", "UniProt Q07820, 171-327 limits assumed": "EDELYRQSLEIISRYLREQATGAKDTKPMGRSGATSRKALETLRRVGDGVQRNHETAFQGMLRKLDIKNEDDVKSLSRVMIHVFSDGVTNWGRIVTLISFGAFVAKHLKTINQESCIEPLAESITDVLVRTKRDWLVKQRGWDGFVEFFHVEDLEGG"}, "source": "patent US11685747B2", "about": "“Compounds that inhibit MCL-1 protein” (AMGEN INC., priority 2014, dated 2023)", "key": {"[1]": {"tested_on": "OPM-2", "assay": "Cell viability assay (OPM-2 10 FBS, CellTiter-Glo)", "assay_type": "cell-based, human", "conditions": "read-out: OPM-2 10% FBS, OPM-2 cells, 16 h"}, "[2]": {"biological_target": "recombinant human Mcl-1 (Homo sapiens, UniProt Q07820)", "assay": "Cell free Mcl-1:Bim affinity assay (Mcl-1 HTRF, TR-FRET)", "assay_type": "binding", "conditions": "read-out: Mcl-1 HTRF, inhibition of Mcl-1/Bim interaction"}, "[3]": {"biological_target": "Mcl-1/Bak protein-protein interactions (Homo sapiens, UniProt Q07820)", "assay": "Cell-based split luciferase complementation assay", "conditions": "read-out: Split Luciferase; HEK 293 M cells, serum-free, 4 h"}}}
{"smiles": "CCCCC1C(C)C/C=C\\[C@H](O)[C@@H]2CC[C@H]2CN2C[C@@]3(CCCc4cc(Cl)ccc43)COc3ccc(cc32)C(=O)NS1(=O)=O", "note": "(single isomer, unassigned)", "values": [{"measurement": "IC50", "setting": "[1]", "value": 1560, "unit": "nM"}, {"measurement": "IC50", "setting": "[2]", "value": 2.71, "unit": "nM"}, {"measurement": "IC50", "setting": "[3]", "value": 169, "unit": "nM"}]}
{"smiles": "CCCCC1C(C)C/C=C/[C@H](O)[C@@H]2CC[C@H]2CN2C[C@@]3(CCCc4cc(Cl)ccc43)COc3ccc(cc32)C(=O)NS1(=O)=O", "note": "(stereo partly drawn)", "values": [{"measurement": "IC50", "setting": "[1]", "value": 2220, "unit": "nM"}, {"measurement": "IC50", "setting": "[2]", "value": 5.42, "unit": "nM"}, {"measurement": "IC50", "setting": "[3]", "value": 354, "unit": "nM"}]}
{"smiles": "CO[C@H]1/C=C/CC(C)C(CC2CC2)S(=O)(=O)NC(=O)c2ccc3c(c2)N(C[C@@H]2CC[C@H]21)C[C@@]1(CCCc2cc(Cl)ccc21)CO3", "note": "(stereo partly drawn)", "values": [{"measurement": "IC50", "setting": "[1]", "value": 6700, "unit": "nM"}, {"measurement": "IC50", "setting": "[2]", "value": 10.3, "unit": "nM"}, {"measurement": "IC50", "setting": "[3]", "value": 166, "unit": "nM"}]}
{"smiles": "CO[C@H]1/C=C/CC(C)CS(=O)(=O)NC(=O)c2ccc3c(c2)N(C[C@@H]2CC[C@H]21)C[C@@]1(CCCc2cc(Cl)ccc21)CO3", "note": "(single isomer, unassigned)", "values": [{"measurement": "IC50", "setting": "[1]", "value": 242, "unit": "nM"}, {"measurement": "IC50", "setting": "[2]", "value": 0.81, "unit": "nM"}, {"measurement": "IC50", "setting": "[3]", "value": 49.5, "unit": "nM"}]}
